# Measured values taken from patent US20120130699A1, “Method of molecular design and synthesis of therapeutic and preventive drugs” (priority 2010, published 2012).
# B1: beta-interferon: beta-interferon, treatment of disseminated sclerosis (protein, UniProt P01574 22-187, looked up)
# Interferon beta: MSYNLLGFLQRSSNFQCQKLLWQLNGRLEYCLKDRMNFDIPEEIKQLQQFQKEDAALTIYEMLQNIFAIFRQDSSSTGWNETIVENLLANVYHQINHLKTVLEEKLEKEDFTRGKLMSSLHLKRYYGRILHYLKAKEYSHCAWTIVRVEILRNFYFINRLTGYLRN
# Key:
# CaOv cells = experiment: antiproliferative activity of IFN derivatives (IAA) on CaOv cells; type: cell-based, human; conditions: 1000 U/ml, FIG. 2
# Method: (§1) For the synthesis of quasi-life systems on the basis of α-2b-interferon, interferon (IFN) (Biolek, Kharkiv, Ukraine) and succinic and aconitic anhydrides (Aldrich-Sigma, USA) were used. The end of the reaction was controlled through changing the molecular weight of the IFN through pulse-gel-electrophoresis in polyacrylamide gel, using non-acylated IFN as a control^[ ]. […] The modified IFN were cleaned with chromatography on Sephadex G-25 and then preserved at −20° C. Their antiproliferative activity was studied on cells of the CaOv line, which is highly sensitive to interferons in vitro, and on SW-480, a cell line with a low sensitivity to the activity of IFN in vitro. […] The cell cultures' sensitivity to IFN was evaluated by the level of slowing of cell growth after treatment with the quasi-life IFN derivatives.
# (§2) The Index of Antiproliferative Activity (IAA) of IFN (%) was calculated as a ratio between the number of cells in the experimental well and the number of cells in the control multiplied by 100. The non-specific cytotoxic effect was determined through dyeing the cells with trypan blue incubation after a 24-hour incubation of the cells with IFN derivatives. […] The number of cells was determined using an inverted microscope (Leica, Germany) every twelve hours.
# SW-480 cells = experiment: antiproliferative activity of IFN derivatives (IAA) on SW-480 cells; type: cell-based, human
# Method: as §1, §2
# [1] = treatment of disseminated sclerosis, cited from earlier work
molecule,measurement,setting,value
"1-substituted SIF: α-2b-interferon acylated with succinic anhydride, mole ratio 1:1",increase in the index of antiproliferation activity (IAA),CaOv cells; versus unmodified IFN,3.2 times
"IFN: α-2b-interferon (Biolek, Kharkiv, Ukraine), non-acylated",antiproliferative activity,"SW-480 cells; SW-480, 1000 U/ml, FIG. 3",does not have antiproliferative activity
same,"slow in growth, share of the cells",SW-480 cells; after twelve hours of incubation,literally ineffective
"6-substituted SIFs: α-2b-interferon acylated with succinic anhydride, mole ratio 1:6",antiproliferative activity,CaOv cells,does not appear
B1,exceeds the placebo in effectiveness,[1],8%
same,effectiveness,[1]; placebo 30%,38%
